Source: PubChem BioAssay AID463218 (Sanford-Burnham Center for Chemical Genomics, 2010)
This is a selection; strong and weak results do not stand in their true shares. The source made the active and inactive calls.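 The calls were made as follows: active = inhibition above about 39% in either of two replicate wells at 20 µM (limit read from the data); inactive = the rest.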

assay: growth inhibition of tim23-1 ts yeast, retest – luminescence, single concentration, confirmation (AID 463218);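 also: temperature-sensitive tim23-1 mutant grown at 25 °C; 0% = DMSO wells with yeast and 100% = medium wells without yeast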; conditions: S. cerevisiae tim23-1 growth, BacTiter-Glo luminescence, 24 h; at 20 µM; active compounds read high

Question: For `O=[N+]([O-])c1cc([N+](=O)[O-])c(Nc2ccccn2)c([N+](=O)[O-])c1`, which inhibition is on record?
Answer: active: 72.5%
